# Values of other authors as cited in article PMC10946813, “Lipophilicity Modulations by Fluorination Correlate with Membrane Partitioning” (Angewandte Chemie (International Ed. in English), 2023).
# Settings: reference value used in the logP determination; no reference given; cited from earlier work
substance,measurement,value
2-fluoroethanol,logP of reference compound,-0.75
